Experimental data taken from patent US9797889B2, “Activation of bioluminescence by structural complementation” (Promega Corporation, priority 2013, dated 2017).

Molecular target: FRB and FKBP (Homo sapiens, UniProt P42345+P62942)
Assay: Rapamycin-induced FRB/FKBP interaction with NLpoly/NLpep fusions in HEK293T cells (Examples 65-76)
Conditions: 50 nM rapamycin 2 h, FRB-NLpoly with FKBP-NLpep

B1: 5A2: 5A2 non-luminescent mutant generated in Example 6 (SEQ ID NOS: 539 and 540) (protein)
chain: MVFTLEDFVGDWRQTAAYNLDQVLEQGGVSSLFQNLAVSVTPIQRIVLSGENALKIDIHVIIPYEGLSADQMAQIEKIFKVVYPVDDHHFKVILHYGTLVIDGVTPNMIDYFGRPYEGIAVFDGKKITVTGTLWNGNKIIDERLINPDGSLLFRVTINV
rapamycin induction of luminescence: greater rapamycin induction relative to NLpoly5P
